Reference: US11912789

Key:
[1] = molecular target: T1, RSKAKNPLYR
T1 chain: RSKAKNPLYR

[2] = molecular target: T2, RSKAKNPLYR-(2Adod)4-NH2
T2 chain: RSKAKNPLYR

[3] = molecular target: T3, RSKAKNPLY
T3 chain: RSKAKNPLY

B1: Lymphocyte-specific protein tyrosine kinase (Lck), enzyme in cell-free kinase assay (protein)
chain: MGCGCSSHPEDDWMENIDVCENCHYPIVPLDGKGTLLIRNGSEVRDPLVTYEGSNPPASPLQDNLVIALHSYEPSHDGDLGFEKGEQLRILEQSGEWWKAQSLTTGQEGFIPFNFVAKANSLEPEPWFFKNLSRKDAERQLLAPGNTHGSFLIRESESTAGSFSLSVRDFDQNQGEVVKHYKIRNLDNGGFYISPRITFPGLHELVRHYTNASDGLCTRLSRPCQTQKPQKPWWEDEWEVPRETLKLVERLGAGQFGEVWMGYYNGHTKVAVKSLKQGSMSPDAFLAEANLMKQLQHQRLVRLYAVVTQEPIYIITEYMENGSLVDFLKTPSGIKLTINKLLDMAAQIAEGMAFIEERNYIHRDLRAANILVSDTLSCKIADFGLARLIEDNEYTAREGAKFPIKWTAPEAINYGTFTIKSDVWSFGILLTEIVTHGRIPYPGMTNPEVIQNLERGYRMVRPDNCPEELYQLMRLCWKERPEDRPTFDYLRSVLEDFFTATEGQYQPQP
- auto-phosphorylation of Lck at Y394 (Western blot, anti-pY394 Lck), peptide at 10 µM and 30 µM [1]: weak auto-phosphorylation of Lck at Y394 in the presence of ATP that does not increase with exposure of Lck to the peptide RSKAKNPLYR at 10 µM and 30 µM
- auto-phosphorylation of Lck at Y394 (Western blot, anti-pY394 Lck), compound at 10 µM [2]: the auto-phosphorylation of Lck observed in the presence of 10 µM RSKAKNPLYR-4C10 exceeded that observed for RSKAKNPLY alone at the same concentration
- auto-phosphorylation of Lck at Y394 (Western blot, anti-pY394 Lck), peptide at 10 µM and 30 µM [3]: exposure of Lck to the peptide RSKAKNPLY at 10 µM and 30 µM induces a dose-dependent auto-phosphorylation of Lck
